Protein sequences, listed by entry. Tags and fused reporters are not part of them. Lines headed by an entry give the natural chain unless they say otherwise; changes in a name come on top.
UniProt P53341: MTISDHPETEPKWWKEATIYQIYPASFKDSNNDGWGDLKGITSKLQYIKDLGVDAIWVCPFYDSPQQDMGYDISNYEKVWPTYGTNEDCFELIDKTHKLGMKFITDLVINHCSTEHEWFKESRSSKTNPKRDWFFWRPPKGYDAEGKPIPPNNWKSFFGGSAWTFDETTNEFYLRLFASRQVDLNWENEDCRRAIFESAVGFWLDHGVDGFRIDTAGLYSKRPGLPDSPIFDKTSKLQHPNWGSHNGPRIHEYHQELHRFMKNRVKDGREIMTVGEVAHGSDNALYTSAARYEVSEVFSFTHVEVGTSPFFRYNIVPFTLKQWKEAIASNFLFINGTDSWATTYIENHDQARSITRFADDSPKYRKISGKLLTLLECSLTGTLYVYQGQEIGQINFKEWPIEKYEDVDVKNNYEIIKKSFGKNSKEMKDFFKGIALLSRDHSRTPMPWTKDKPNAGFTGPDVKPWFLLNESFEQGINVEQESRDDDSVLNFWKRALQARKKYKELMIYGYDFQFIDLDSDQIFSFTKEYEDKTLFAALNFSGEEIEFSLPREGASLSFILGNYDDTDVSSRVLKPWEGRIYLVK

In paper PMC8512368, “Alpha-Glucosidase Inhibitory Assay-Screened Isolation and Molecular Docking Model from Bauhinia pulla Active Compounds” (Molecules, 2021):

Target: T1, alpha-glucosidase enzyme from Saccharomyces cerevisiae (EC 3.2.1.20) (Saccharomyces cerevisiae, UniProt P53341)
T1 construct: purchased Sigma-Aldrich
Assay type: biochemical
Conditions: Bauhinia pulla extract screening; test concentration not given
Method: Briefly, the enzyme from Saccharomyces cerevisiae (EC 3.2.1.20) and the pNPG substrate were dissolved in 0.1 M phosphate buffer (pH 7), which was enriched by bovine serum albumin and sodium azide. Standards and samples were suspended in 20% (v/v) of DMSO in a water solution. In a 96-well plate, 50 µl of PBS, standards, samples and enzyme solutions were mixed and incubated for 2 min at 37 °C. At last, 50 µl of 4 mM pNPG was added and incubated for 5 min before the kinetic parameter measurement, as described earlier.
The velocity was examined by a linear relationship equation between absorbance and time, Equation (1).
The percent inhibition was determined for the highest velocity as:% Inhibition = (V control − V sample)/(V control) × 100(2)
The IC50 value was calculated by using a calibration curve equation between samples at five different concentrations and inhibition percentages.

## C[C@H]1O[C@H](O[C@H]2[C@H](O)[C@@H](O)[C@@H](O[C@H]3[C@H](O)[C@@H](O)C(O)O[C@@H]3CO)O[C@@H]2CO)[C@H](O)[C@@H](O)[C@@H]1N[C@H]1C=C(CO)[C@@H](O)[C@H](O)[C@H]1O (stereo partly shown) [Acarbose, reference compound]
  Alpha-Glucosidase Inhibition (%) ± SD: 86.09 ± 1.54%
